# Measurements published in patent US8674100B2, “Inhibitors of C-FMS kinase” (Janssen Pharmaceutica, N.V., priority 2006, dated 2014).
# Protein sequences, listed by entry. Tags and fused reporters are not part of them. Residues count along the entry.
# UniProt P07333, 20-972: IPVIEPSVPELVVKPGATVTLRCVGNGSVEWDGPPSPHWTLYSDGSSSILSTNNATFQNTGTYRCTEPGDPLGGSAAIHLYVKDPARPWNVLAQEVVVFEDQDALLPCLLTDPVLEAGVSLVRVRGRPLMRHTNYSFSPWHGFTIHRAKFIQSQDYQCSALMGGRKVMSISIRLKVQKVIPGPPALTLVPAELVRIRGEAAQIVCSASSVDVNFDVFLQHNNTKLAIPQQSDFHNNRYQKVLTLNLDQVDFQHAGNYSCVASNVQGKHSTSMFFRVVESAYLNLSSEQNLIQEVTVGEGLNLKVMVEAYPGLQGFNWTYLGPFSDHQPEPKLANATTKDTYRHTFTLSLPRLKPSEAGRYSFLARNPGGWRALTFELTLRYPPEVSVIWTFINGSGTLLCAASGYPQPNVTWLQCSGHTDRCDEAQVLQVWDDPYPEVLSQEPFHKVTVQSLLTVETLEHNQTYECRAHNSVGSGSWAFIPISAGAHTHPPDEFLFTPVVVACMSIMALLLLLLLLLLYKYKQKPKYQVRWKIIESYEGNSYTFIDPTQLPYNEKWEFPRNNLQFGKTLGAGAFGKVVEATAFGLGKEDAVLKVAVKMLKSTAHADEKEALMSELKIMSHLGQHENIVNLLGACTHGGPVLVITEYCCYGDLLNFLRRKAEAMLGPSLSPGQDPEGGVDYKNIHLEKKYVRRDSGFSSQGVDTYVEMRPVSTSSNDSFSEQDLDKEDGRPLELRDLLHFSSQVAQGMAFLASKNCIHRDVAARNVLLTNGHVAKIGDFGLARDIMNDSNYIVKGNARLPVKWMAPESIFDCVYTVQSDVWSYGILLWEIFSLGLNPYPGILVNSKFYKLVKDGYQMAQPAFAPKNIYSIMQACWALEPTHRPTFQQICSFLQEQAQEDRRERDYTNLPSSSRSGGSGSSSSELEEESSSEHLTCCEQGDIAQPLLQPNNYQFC
# Counter-ions that a name gives are not always drawn.
# Molecular target: CSF-1R (c-fms) (Homo sapiens (Human), UniProt P07333)
# Experiment: Fluorescence polarization competition immunoassay (1 nM c-fms; peptide Pi assay)
# Assay type: biochemical
# Settings: inhibition of CSF-1R phosphorylation of SYEGNSYTFIDPTQ peptide; 1 mM ATP; read-out: 1 nM c-fms; peptide Pi assay - IC-50
structure (smiles),measurement,value
"CCOC(=O)Cc1ccc(NC(=O)c2cc(C#N)c[nH]2)c(C2=CCC(C)(C)CC2)n1 [Example 50, [5-[(4-Cyano-1H-pyrrole-2-carbonyl)-amino]-6-(4,4-dimethyl-cyclohex-1-enyl)-pyridin-2-yl]-acetic acid ethyl ester trifluoroacetic acid salt]",IC50,60 nM
